According to patent publication US20240066131A1 (Protagonist Therapeutics, Inc., priority 2020, published 2024):

Molecular target: T1, ferroportin (Homo sapiens, UniProt Q9NP59)
T1 sequence (Q9NP59 1-571): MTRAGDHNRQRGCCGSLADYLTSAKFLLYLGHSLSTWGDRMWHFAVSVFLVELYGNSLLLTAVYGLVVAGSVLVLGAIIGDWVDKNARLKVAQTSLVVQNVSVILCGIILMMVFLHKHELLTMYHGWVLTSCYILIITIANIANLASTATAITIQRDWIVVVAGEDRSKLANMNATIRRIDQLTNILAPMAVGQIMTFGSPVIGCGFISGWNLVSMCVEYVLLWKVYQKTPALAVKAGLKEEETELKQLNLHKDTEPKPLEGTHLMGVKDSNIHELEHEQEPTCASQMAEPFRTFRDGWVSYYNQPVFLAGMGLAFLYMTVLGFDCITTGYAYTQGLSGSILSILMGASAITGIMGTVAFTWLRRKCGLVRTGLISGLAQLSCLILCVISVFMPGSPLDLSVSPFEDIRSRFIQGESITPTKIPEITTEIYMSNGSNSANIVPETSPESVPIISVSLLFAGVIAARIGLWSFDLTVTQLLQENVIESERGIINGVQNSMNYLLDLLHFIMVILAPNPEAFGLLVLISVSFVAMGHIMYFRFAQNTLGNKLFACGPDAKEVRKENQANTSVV
Assay: FPN activity assay: internalization/degradation of ferroportin-GFP in stably transfected HEK293 cells (loss of GFP fluorescence)
Format: cell-based
Conditions: Table 6A; read-out: FPN EC50
Protocol: Following internalization, the ferroporin protein is degraded.
A retro inverse peptide is a peptide with a reversed sequence in all D amino acids. An example is that Hy-Glu-Thr-His-NH2 becomes Hy-DHis-DThr-DGlu-NH2. The EC50 of these reference compounds for ferroportin internalization/degradation was determined according to the FPN activity assay described above. These peptides served as control standards.

## CCCCCCCCCCCCCCCC(=O)NCCCCCC(=O)NCCCC[C@H](NC(=O)[C@@H]1CCCN1C(=O)[C@@H](NC(=O)[C@H](Cc1c[nH]cn1)NC(=O)[C@@H](NC(=O)[C@H](CCC(=O)O)NC(=O)CC(C)C)[C@@H](C)O)C(c1ccccc1)c1ccccc1)C(N)=O [compound 8]
  DC50: 452 nM

## CC[C@H](C)[C@H](NC(=O)[C@H](C)NC(=O)[C@@H]1CCCN1C(=O)[C@@H](NC(=O)[C@H](Cc1c[nH]cn1)NC(=O)[C@@H](NC(=O)[C@H](CCC(=O)O)NC(=O)CC(C)C)[C@@H](C)O)C(c1ccccc1)c1ccccc1)C(=O)N[C@H](CCCCN)C(=O)N[C@H](CC(=O)N[C@@H](CCCCNC(C)=O)C(N)=O)Cc1ccccc1 [compound 10]
  DC50: 154 nM

## CC[C@H](C)[C@H](NC(=O)[C@H](C)NC(=O)[C@@H]1CCCN1C(=O)[C@@H](NC(=O)[C@H](Cc1c[nH]cn1)NC(=O)[C@@H](NC(=O)[C@H](CCC(=O)O)NC(=O)CC(C)C)[C@@H](C)O)C(c1ccccc1)c1ccccc1)C(=O)N[C@@H](CCCCNC(=O)COCCOCCNC(=O)COCCOCCNC(=O)CCCCCNC(=O)CCCCCCCCCCCCCCCCC(=O)O)C(=O)N[C@H](CC(=O)N[C@H](CCCCN)C(N)=O)Cc1ccccc1 [compound 17]
  DC50: 20.3 nM

## CCCCCCCCCCCCCCCC(=O)NCCCCCC(=O)NCCCC[C@H](NC(=O)C[C@H](Cc1ccccc1)NC(=O)[C@@H](CCCCN)NC(=O)[C@H](C)NC(=O)[C@H](C)NC(=O)[C@@H]1CCCN1C(=O)[C@@H](NC(=O)[C@H](Cc1c[nH]cn1)NC(=O)[C@@H](NC(=O)[C@H](CCC(=O)O)NC(=O)CC(C)C)[C@@H](C)O)C(c1ccccc1)c1ccccc1)C(=O)N[C@H](CCCCN)C(=O)N[C@@H](C)C(N)=O [compound 31]
  DC50: 108 nM

## CCCCCCCCCCCCCCCC(=O)NCCCCCC(=O)NCCCC[C@H](NC(=O)C[C@H](Cc1ccccc1)NC(=O)[C@@H](CCCCN)NC(=O)[C@@H](NC(=O)[C@H](C)NC(=O)[C@@H]1CCCN1C(=O)[C@@H](NC(=O)[C@H](Cc1c[nH]cn1)NC(=O)[C@@H](NC(=O)[C@H](C)NC(=O)CC(C)C)[C@@H](C)O)C(c1ccccc1)c1ccccc1)[C@@H](C)CC)C(=O)N[C@H](CCCCN)C(=O)N[C@@H](C)C(N)=O [compound 32]
  DC50: 34 nM

## CCCCCCCCCCCCCCCC(=O)NCCCCCC(=O)NCCCC[C@H](NC(=O)C[C@H](Cc1ccccc1)NC(=O)[C@H](CCCCN)N(C)C(=O)[C@@H](NC(=O)[C@H](C)NC(=O)[C@@H]1CCCN1C(=O)[C@@H](NC(=O)[C@H](Cc1c[nH]cn1)NC(=O)[C@@H](NC(=O)[C@H](Cc1nn[nH]n1)NC(=O)CC(C)C)[C@@H](C)O)C(c1ccccc1)c1ccccc1)[C@@H](C)CC)C(N)=O [compound 49]
  DC50: 33.2 nM

## CCCCCCCCCCCCCCCC(=O)NCCCCCC(=O)NCCCC[C@H](NC(=O)[C@@H](NC(=O)[C@H](C)NC(=O)[C@@H]1CCCN1C(=O)[C@@H](NC(=O)[C@H](Cc1c[nH]cn1)NC(=O)[C@@H](NC(=O)[C@H](CCC(=O)O)NC(=O)CC(C)C)[C@@H](C)O)C(c1ccccc1)c1ccccc1)[C@@H](C)CC)C(=O)NCCc1ccccc1 [compound 51]
  DC50: 108 nM

## CCCCCCCCCCCCCCCC(=O)NCCCCCC(=O)NCCCC[C@H](NC(=O)C[C@H](Cc1ccccc1)NC(=O)[C@H]1CCCCNC(=O)CC[C@H](NC(=O)CC(C)C)C(=O)N[C@@H]([C@@H](C)O)C(=O)N[C@@H](Cc2c[nH]cn2)C(=O)N[C@@H](C(c2ccccc2)c2ccccc2)C(=O)N2CCC[C@H]2C(=O)N[C@@H](C)C(=O)N[C@@H]([C@@H](C)CC)C(=O)N1)C(=O)N[C@@H](CCCNC(=N)N)C(N)=O [compound 56]
  DC50: 11.4 nM

## CCCCCCCCCCCCCCCC(=O)NCCCCCC(=O)NCCCC[C@H](NC(=O)[C@@H](NC(=O)[C@@H]1CCCN1C(=O)[C@@H](NC(=O)[C@H](Cc1c[nH]cn1)NC(=O)[C@@H](NC(=O)[C@H](CCC(=O)O)NC(=O)CC(C)C)[C@@H](C)O)C(c1ccccc1)c1ccccc1)[C@@H](C)CC)C(=O)N[C@H](CC(N)=O)Cc1ccccc1 [compound 84]
  DC50: 156 nM

## CCCCCCCCCCCCCCCC(=O)NCCCCCC(=O)NCCCC[C@H](NC(=O)CN(CCC(C)C)C(=O)[C@H](C)NC(=O)[C@@H]1CCCN1C(=O)[C@@H](NC(=O)[C@H](Cc1c[nH]cn1)NC(=O)[C@@H](NC(=O)[C@H](CCC(=O)O)NC(=O)CC(C)C)[C@@H](C)O)C(c1ccccc1)c1ccccc1)C(=O)N[C@H](CC(N)=O)Cc1ccccc1 [compound 91]
  DC50: 13 nM

## CCCCCCCCCCCCCCCC(=O)NCCOCCOCC(=O)NCCCC[C@H](NC(=O)[C@@H](NC(=O)[C@H](C)NC(=O)[C@@H]1CCCN1C(=O)[C@@H](NC(=O)[C@H](Cc1c[nH]cn1)NC(=O)[C@@H](NC(=O)[C@H](CCC(=O)O)NC(=O)CC(C)C)[C@@H](C)O)C(c1ccccc1)c1ccccc1)[C@@H](C)CC)C(=O)N[C@H](CC(N)=O)Cc1ccccc1 [compound 94]
  DC50: 11.8 nM

## CCCCCCCCCCCCCCCC(=O)N[C@@H](CCC(=O)NCCOCCOCC(=O)NCCOCCOCC(=O)NCCCC[C@H](NC(=O)[C@@H](NC(=O)[C@H](C)NC(=O)[C@@H]1CCCN1C(=O)[C@@H](NC(=O)[C@H](Cc1c[nH]cn1)NC(=O)[C@@H](NC(=O)[C@H](CCC(=O)O)NC(=O)CC(C)C)[C@@H](C)O)C(c1ccccc1)c1ccccc1)[C@@H](C)CC)C(=O)N[C@H](CC(N)=O)Cc1ccccc1)C(=O)O [compound 102]
  DC50: 16.4 nM

## CCCCCCCCCCCCCCCC(=O)NCCCCCC(=O)NCCCC[C@H](NC(=O)[C@@H](NC(=O)[C@@H]1CCCN1C(=O)[C@@H](NC(=O)[C@H](Cc1c[nH]cn1)NC(=O)[C@@H](NC(=O)[C@H](CCC(=O)O)NC(=O)CC(C)C)[C@@H](C)O)C(c1ccccc1)c1ccccc1)[C@@H](C)CC)C(=O)N[C@H](CC(N)=O)Cc1ccccc1 [compound 127]
  DC50: 35.8 nM

## CCCCCCCCCCCCCCCC(=O)NCCCCCC(=O)NCCCC[C@H](NC(=O)[C@@H](NC(=O)[C@H](C)NC(=O)[C@@H]1CCCN1C(=O)[C@@H](NC(=O)[C@H](Cc1c[nH]cn1)NC(=O)[C@@H](NC(=O)[C@H](CCC(=O)O)NC(=O)CC(C)C)[C@@H](C)O)C(c1ccccc1)c1ccccc1)[C@@H](C)CC)C(=O)N[C@H](CC(=O)N[C@H](CCCCN)C(N)=O)Cc1ccccc1 [compound 130]
  DC50: 48.9 nM
